We go through 1 molecule from paper PMC5983452 (PLoS ONE, 2018).

Structures can show the parent of a compound that is named as a salt.

In the series the test system is Caco-2 cells.

Turning to `NC1CCC(S(=O)(=O)N2C3CCC2CC(NC(=O)c2cc(C4CC4)on2)C3)CC1` [EPZ028862, N-((1R,3R,5S)-8-((1r,4R)-4-aminocyclohexylsulfonyl)-8-aza-bicyclo[3.2.1]octan-3-yl)-5-cyclopropylisoxazole-3-carboxamide hydrochloride], the “Caco-2 assay outcome in words” value is “both permeable and an efflux substrate”.
